Earlier results as cited in patent US20050158405A1, “Personal decontaminant” (published 2005).

Assays:
[1] = tested on: spores; conditions: according to APIC
[2] = tested on: hydrophilic viruses; conditions: according to APIC

| SMILES | sporicidal activity [1] | ability to kill hydrophilic viruses [2] |
| --- | --- | --- |
| CC(C)O | lack sporicidal activity | lacks the ability to kill hydrophilic viruses |
| CCO | lack sporicidal activity | – |
